From patent US8207199B2, “Azole compound” (dated 2012)

Test system: L5/L6 spinal nerve-ligated rat
Assay: Antiallodynia effect in L5/L6 spinal nerve-ligated rat (neuropathic pain model), von Frey hair test (Test Example 3)
Settings: 3 mg/kg orally, 60 minutes before response threshold measurement; operated paw 0%, non-operated paw 100% in solvent group
From the text: The presence of a therapeutic effect for neuropathic pain may be confirmed by methods known to those skilled in the art or by methods modified from them. For example, using an L5/L6 spinal nerve ligated rat that is produced according to partial modification of a Kim and Chung's method (Pain, Vol. 50, pp. 355-363, 1992), the improving effect of a compound for significant reduction in the response threshold to tactile stimulation (allodynia) can be evaluated, and based on it, the effect for treating neuropathic pain may be confirmed.
Test Example 3: Antiallodynia Effect of Compound in L5/L6 Spinal Nerve-Ligated Rat (Neuropathic Pain Model):
A 5 to 6-week age male SD rat was subjected to the operation of ligating its left-side L5 and L6 spinal nerves with silk threads, under pentobarbital anesthesia. For evaluating the analgesic effect, a von Frey hair test was employed. That is, the hindlimb of the animal was picked with hair, whereupon the minimum strength of the hair which caused limb withdrawal response was referred to as the response threshold to the mechanical stimulation (log gram). […] On the day before the day when the test compound would be tested, the response threshold before test compound administration was measured. […] In the evaluation test of the test compounds, the response threshold after test compound administration was measured. […]

In the case of O=C(/C=C/c1ccccc1)N1CCN(C(=O)Oc2cccnc2)CC1, the “Recovery rate (%)” value is reported as 47%.
